From US10488416B2, “Targeting breast cancer therapy based on stromal subtypes and CD146 composition” (The Regents of the University of Colorado, a Body Corporate, priority 2014, dated 2019)

Tested on: MCF-7 cells
Assay: MCF-7/fibroblast co-culture proliferation with EGFR inhibition (live cell imaging)
Format: cell-based, human
Method: For experiments testing estrogen or anti-endocrine effects, estrogen positive cells were grown in phenol red-free media with 5% dextran-coated charcoal-stripped FCS for 1-3 days prior to drug treatments. For hormone therapy, cultures were either supplemented with 10 nM 17-β-estradiol or ethanol vehicle alone. For proliferation experiments, cultures were supplemented with 100 nM 4-hydroxy-tamoxifen (tamoxifen), 10 μM gefitinib or ethanol vehicle control. For conditioned media experiments, estrogen free media was conditioned on a confluent layer of fibroblasts or ER+ epithelial tumor cells for 24 hours. Tumor cells were seeded in 96-well plates at a density of 3,000 cells per well in complete media and allowed to attach for 24 hours. The media was changed to conditioned media (65% conditioned media, 35% fresh estrogen free complete media) supplemented with ethanol vehicle, estrogen or estrogen plus tamoxifen.
Proliferation was measured by total protein sulforhodamine assay (SRB) or by live cell imaging. Cells were processed for the sulforhodamine B colorimetric (SRB) assay 72 hours after treatment. Briefly, culture media was removed and cells were gently washed 1× with PBS followed by a 30-minute incubation at 4° C. in 10% trichloroacidic acid. Cells were washed 5 times with deionized water and plates were dried for 2 hours. Sulforhodamine B (0.2%) dye was added for 20 minutes at room temperature, followed by 5 washes with 1% acetic acid and a 2-hour drying period. Each well of a 96-well plate received 0.2 mL of 10 mM unbuffered tris base and was agitated for 10 minutes. Total protein was assessed using a BioTek (Winooski, Vt.) Synergy 2 microplate reader (565 nm-690 nm background). Live cell imaging analysis was completed using the Essen BioScience IncuCyte Zoom (Ann Arbor, Mich.) and analyzed using the IncuCyte associated software.
As a corollary, it was determined if growth of BCCs influenced by CD146^neg fibroblasts were sensitive to EGFR inhibition. […]

COc1cc2ncnc(Nc3ccc(F)c(Cl)c3)c2cc1OCCCN1CCOCC1 [gefitinib]
reduction of proliferation (MCF-7 cultured with CD146neg fibroblasts, 10 μM, 72 hours post-treatment, 2.5% FBS): 60% | proliferation response (FIG. 5D legend) (MCF-7 with CD146neg fibroblasts, live cell imaging): significantly decreased proliferation | effect on proliferation (MCF-7 with CD146pos (HS27a) fibroblasts, 10 μM): not significantly changed; also recorded: unchanged

Entries after “also recorded” stand apart in the source; their conditions may differ.
